The record followed here is US20020068038A1, “Foaming tablet for cleaning the oral cavity and preparation method thereof” (priority 1998, published 2002).

The subject of the experiment is Bacteroides melaninogenicus ssp intermedius.
[1] abbreviates: Bacteroides melaninogenicus ssp intermedius, MH medium, 96 hours anaerobic cultivation at 37° C., less than 10 colonies on LRBB agar.

The structures appear in SMILES notation. Like-named read-outs stand apart in the source and are kept apart here.

`O=C([O-])O.[K+]` [KHCO3, potassium bicarbonate] yielded a disinfection concentration of 50. Take `O=S(=O)([O-])[O-].[Mg+2]` [MgSO4, magnesium sulfate]: the disinfection concentration under setting [1] worked out at 200. Under setting [1], `[Cl-].[Na+]` [NaCl, sodium chloride] had a disinfection concentration of 650. `O=C([O-])O.[Na+]` [NaHCO3, sodium bicarbonate] showed a disinfection concentration of 100.
